{"source": "patent US20040048790A1", "about": "“Inducing cellular immune responses to p53 using peptide and nucleic acid compositions” (priority 1999, published 2004)", "key": {"[1]": {"molecular_target": "A*0206 (Homo sapiens, UniProt P04439, D140Y/D185E/D98H/E176V/E277Q/F33Y/G131W/G231S/I119V/I121R/I166T/I218V/L300P/L318F/N151K/N90K/P208A/P217A/Q86G/Q94H/R138H/R169H/T345S)", "assay": "biochemical", "settings": "A*0206 binding affinity, Table XXII, A2 supermotif analogs"}, "[2]": {"molecular_target": "B*3501 (Homo sapiens, UniProt P01889, A329T/A93T/A95T/C349S/D201E/D98Y/E176V/E187L/E204Q/E69T/I218V/K202T/L119I/Q94N/R155S/R180L/S121R/S35A/S48A/T118I/V127L/V306I/V36M/Y140S/Y91F)", "assay": "biochemical"}, "[3]": {"molecular_target": "HLA-A*0201 (Homo sapiens, UniProt P04439, D140Y/D185E/D98H/E176V/E277Q/G131W/G231S/I119V/I121R/I166T/I218V/L300P/L318F/N151K/N90K/P208A/P217A/Q86G/Q94H/R138H/R169H/T345S)", "assay": "biochemical"}, "[4]": {"molecular_target": "B51", "set-up": "species or system human", "settings": "Table XXIV, B7 supermotif peptides; read-out: B*5101 binding affinity"}, "[5]": {"molecular_target": "HLA-B*0702 (Homo sapiens, UniProt P01889)", "assay": "biochemical"}}}
{"smiles": "CC(C)C[C@H](NC(=O)[C@H](C)N)C(=O)N1CCC[C@H]1C(=O)N1CCC[C@H]1C(=O)N[C@H](C(=O)N[C@@H](C)C(=O)N1CCC[C@H]1C(=O)N[C@H](C(=O)O)C(C)C)C(C)C", "note": "[p53.69L2V8]", "values": [{"measurement": "IC50", "setting": "[1]", "result": 285, "unit": "nM"}]}
{"smiles": "C[C@H](N)C(=O)N1CCC[C@H]1C(=O)N[C@@H](C)C(=O)N1CCC[C@H]1C(=O)N[C@@H](C)C(=O)N1CCC[C@H]1C(=O)N[C@@H](CO)C(=O)N[C@@H](Cc1c[nH]c2ccccc12)C(=O)O", "note": "[p53.84]", "values": [{"measurement": "IC50", "setting": "[2]", "result": 3.27, "unit": "µM"}]}
{"smiles": "CC[C@H](C)[C@H](N)C(=O)N[C@@H](CC(C)C)C(=O)N[C@@H](CC(C)C)C(=O)N[C@@H](CCC(=O)O)C(=O)N[C@@H](CC(=O)O)C(=O)N[C@@H](CO)C(=O)N[C@@H](CO)C(=O)NCC(=O)N[C@@H](CC(N)=O)C(=O)N[C@@H](CC(C)C)C(=O)N[C@H](C(=O)O)C(C)C", "note": "[p53.255L2V11]", "values": [{"measurement": "IC50", "setting": "[3]", "result": 33, "unit": "nM"}]}
{"smiles": "CC[C@H](C)[C@H](NC(=O)[C@H](CO)NC(=O)[C@@H]1CCCN1C(=O)[C@H](C)NC(=O)[C@@H]1CCCN1C(=O)[C@H](C)NC(=O)[C@@H]1CCCN1C(=O)[C@H](C)N)C(=O)O", "note": "[p53.84.18]", "values": [{"measurement": "IC50", "setting": "[4]", "result": 500, "unit": "nM"}, {"measurement": "IC50", "setting": "[5]", "result": 275, "unit": "nM"}]}
